Screening results: PubChem BioAssay, ICCB-Longwood Screening Facility, Harvard Medical School
Hits are enriched below; roughly 0.46% of the tested compounds scored in any of these assays.
GIV-Gai inh – blocks GIV peptide binding to rat Galpha-i3. P08753. Galpha-i3/FITC-GIV peptide fluorescence polarization, 90 min; hits give low values; scaled: aluminum fluoride 0%, vehicle 100%. percent of control (FP), % (concentration not given with the values). actives 0.42% (n = 210,000). AID 1224905;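 active = replicate mean at 85% of control or lower, very high polarization wells dropped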;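 also: wells of about 15 µL received 100 nL stock; the first replicate is given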
HCMV NEC inh – inhibitors of HCMV UL50-UL53 interaction, biochemical, HTRF | 190,000 tested, 0.15% active | inhibition, % (test concentration not listed) | HCMV UL50-UL53 nuclear egress complex (human cytomegalovirus) | AID 1918969, 2023 | normalized percent inhibition; in the data active means inhibition above about 27%, passing the limit was not always enough
GIV-Gai FP conf – inhibitors of GIV peptide binding to Galpha-i3, confirmation, biochemical, fluorescence polarization, FITC-GIV peptide, rat Galphai3. 580 tested, 38% active. hits give low values. fluorescence polarization, mP at 100 µM. shares compounds with GIV-Gai inh;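 active means inhibition score of 15 or more, meaning 100 minus mean polarization as percent of control over three replicates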;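 further: lower mP means peptide displaced from Galphai3 so more inhibition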
GIV Gai AS conf – inhibitors of GIV binding to Galpha-i3, confirmation, orthogonal assay for GIV-Galpha-i inhibitor project, biochemical, AlphaScreen, His-GIV, GST-Galphai3 | AID 1259351, 2017 | AlphaScreen counts at 100 µM | 580 tested, 39% active | purified proteins, 90 min; hits give low values | shares compounds with GIV-Gai inh;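 active means inhibition score at or above a set limit, where the score is 100 minus the three-replicate mean percent of control signal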
* = called active by the depositor; nt = no result.

SMILES	GIV-Gai inh	HCMV NEC inh	GIV-Gai FP conf	GIV Gai AS conf
CC1=NN(c2ccccc2)C(=O)C1C(c1ccc2c(c1)OCO2)C1C(=O)N(c2ccccc2)N=C1C (stereo not drawn)	72.2*	nt	63.4	17537*
CC1=NN(c2ccccc2)C(=O)C1C(c1ccccc1)C(C#N)C#N (stereo not drawn)	106.0	nt	nt	nt
CC(=O)N1N=C(Cn2cnc3c(=O)n(C)c(=O)n(C)c32)OC1c1ccc2c(c1)OCO2 (stereo not drawn)	101.9	-40.9	nt	nt
CC1=NN(Cc2ccccc2Cl)C(=O)C1	nt	-7.8	nt	nt
COC(=O)c1ccc2nsnc2c1	86.4	nt	64.6	37884
CCOC(=O)c1ccc2nsnc2c1	101.3	-69.4	nt	nt
COc1cc(C2C3=C(CC(C)(C)CC3=O)OC3=C2C(=O)CC(C)(C)C3)c(Br)cc1O	112.5	nt	nt	nt
Cn1c(=O)n(CC(=O)O)c(=O)c2c1nc1n2CCN1c1ccc(F)cc1	85.0*	-0.4	64.4	39054
Cn1c(=O)n(CC(=O)O)c(=O)c2c1nc1n2CCCN1c1ccc(F)cc1	92.5	-7.8	nt	nt
Cc1ccccc1OCC(=O)Nc1cc2c(cc1SC(C)C)n(C)c(=O)n2C	99.4	-29.8	nt	nt
CCOC(=O)c1noc2ncn(C(C)C(=O)N3CCCc4ccccc43)c(=O)c12 (stereo not drawn)	105.2	-24.0	nt	nt
CC(O)CNc1c[nH]c(=O)[nH]c1=O (stereo not drawn)	100.3	-20.6	nt	nt
O=c1[nH]cc(NCCO)c(=O)[nH]1	66.0*	-7.3	43.6*	47941
O=C(O)c1ccc(CSc2n[nH]c(-c3ccco3)n2)cc1	78.4*	5.3	57.5*	2493*
CCOC(=O)CSc1n[nH]c(-c2ccco2)n1	103.7	nt	nt	nt
NC(=O)C[n+]1cccc2ccccc21	79.6*	nt	48*	5016*
NC(=O)C[n+]1ccc(/C=N/O)cc1	107.5	-79.5	nt	nt
O=c1c2cccc(F)c2ncn1CCC1CCCCN1C1CCCC1 (stereo not drawn)	nt	-12.7	nt	nt
CCCCOc1ccc(C2=N/C(=C\c3ccc(OC(C)=O)c(OC(C)=O)c3)C(=O)O2)cc1	72.0*	-26.4	68.9	51880
CCCCOc1ccc(C2=N/C(=C\c3ccc(OC)c(OC(C)=O)c3)C(=O)O2)cc1	102.0	-32.6	nt	nt
O=c1[nH]c(=O)c2nc3ccc(Cl)cc3nc2[nH]1	102.8	nt	nt	nt
Cc1cc2nc3[nH]c(=O)[nH]c(=O)c3nc2cc1C	nt	-111.8	nt	nt
CN(C)c1ccc2nc3c(=O)[nH]c(=O)[nH]c3nc2c1	77.0*	nt	33*	14401*
Cc1cc2nc3c(=O)[nH]c(=O)[nH]c3nc2cc1N	63.7*	nt	46*	30002*
Cc1noc(-c2ccc(NC(=O)C3CC(=O)N(Cc4ccccc4)C3)cc2)n1 (stereo not drawn)	104.4	-17.5	nt	nt
CCOC(=O)[C@@H]1Nc2ccc(C(=O)O)cc2[C@@H]2C=CC[C@H]12	63.0*	nt	50*	2184*
CCOC(=O)[C@@H]1Nc2ccc(Br)cc2[C@@H]2C=CC[C@H]12	124.7	-44.0	nt	nt
CCOC(=O)C1=C(C)N=c2s/c(=C\c3cc(Br)cc(OC)c3O)c(=O)n2C1c1ccc(OC)c(OC)c1 (stereo not drawn)	119.4	-18.5	nt	nt
COC(=O)c1cc(-c2cocc2C=C(C#N)C#N)ccc1Cl	52.0*	-9.2	74.7	27781
COC(=O)c1cnn(-c2c(Cl)cccc2Cl)c1C=C(C#N)C#N	97.1	4.3	nt	nt

Sorted by SMILES length (highest first): part of the list above.
SMILES	GIV-Gai inh	HCMV NEC inh	GIV-Gai FP conf	GIV Gai AS conf
CCOC(=O)[C@@H]1Nc2ccc(C(=O)O)cc2[C@@H]2C=CC[C@H]12	63.0*	nt	50*	2184*
Cc1noc(-c2ccc(NC(=O)C3CC(=O)N(Cc4ccccc4)C3)cc2)n1 (stereo not drawn)	104.4	-17.5	nt	nt
CCOC(=O)[C@@H]1Nc2ccc(Br)cc2[C@@H]2C=CC[C@H]12	124.7	-44.0	nt	nt
COC(=O)c1cnn(-c2c(Cl)cccc2Cl)c1C=C(C#N)C#N	97.1	4.3	nt	nt
CN(C)c1ccc2nc3c(=O)[nH]c(=O)[nH]c3nc2c1	77.0*	nt	33*	14401*
COC(=O)c1cc(-c2cocc2C=C(C#N)C#N)ccc1Cl	52.0*	-9.2	74.7	27781
Cc1cc2nc3[nH]c(=O)[nH]c(=O)c3nc2cc1C	nt	-111.8	nt	nt

Further entries
SMILES	GIV-Gai inh	HCMV NEC inh	GIV-Gai FP conf	GIV Gai AS conf
COc1ccc(/C=C2\N=C(c3ccc(Cl)cc3)N(c3ccc(C)cc3C)C2=O)cc1OC	108.6	nt	nt	nt
COc1ccc(/C=C2\N=C(c3ccc(Cl)cc3)N(c3cccc(C)c3)C2=O)cc1OC	116.5	nt	nt	nt
COc1ccc(/C=C2\N=C(c3ccc(Cl)cc3)N(c3ccccc3)C2=O)cc1OC	81.4*	nt	81.1	50234
COc1ccc(/C=C2\N=C(c3ccc(Cl)cc3)N(c3cccc(F)c3)C2=O)cc1OC	87.6	nt	79.3	49008
COc1cc(C=Nc2ccc(C(=O)c3ccccc3)cc2)cc(OC)c1OC	nt	-10.7	nt	nt
Cc1cc(C(F)(F)F)c2c(n1)sc1c(O)cc(=O)[nH]c12	108.5	nt	nt	nt
O=c1cc(O)c2sc3nc(-c4ccco4)cc(C(F)(F)F)c3c2[nH]1	71.9*	-64.0	59.9*	5742*
Cc1ccc(Cn2c(SCC(=O)Nc3ccccc3C)nc3ncccc3c2=O)cc1	106.0	-0.1	nt	nt
Cc1cc(C(F)(F)F)c2c(N)c(C(=O)Nc3ccc(F)cc3)sc2n1	60.9*	-18.4	63.8	59274
Nc1c(C(=O)N2CCCCC2)sc2nc(-c3cccs3)cc(C(F)(F)F)c12	nt	-0.6	nt	nt
COc1cccc(NC(=O)c2sc3nc4c(c(-c5ccc(C)o5)c3c2N)CCCC4)c1	115.3	nt	nt	nt
COc1ccc(NC(=O)c2sc3nc(C)cc(C(F)(F)F)c3c2N)cc1	125.4	nt	nt	nt
COc1ccc(NC(=O)c2sc3nc(-c4cccs4)cc(C(F)(F)F)c3c2N)cc1	75.0*	nt	67.7	53981
Nc1c(C(=O)NC2CC2)sc2nc(-c3cccs3)cc(C(F)(F)F)c12	44.9*	nt	63.5	53248
Nc1c(C(=O)N2CCOCC2)sc2nc(-c3cccs3)cc(C(F)(F)F)c12	108.0	nt	nt	nt
COc1cccc(NC(=O)c2sc3nc4c(c(-c5ccco5)c3c2N)CCC4)c1	85.4*	nt	65.2	51091
CCOC(=O)c1sc2ncnc(Nc3ccc(F)cc3Cl)c2c1C	98.2	nt	nt	nt
Cc1ccc(-c2csc(Cc3nc(-c4ccc(C)cc4)no3)n2)cc1	114.9	nt	nt	nt
COC(=O)[C@H](CC(N)=O)NC(C)=O	103.6	-15.7	nt	nt
CCOc1ccc(-c2c(C#N)c(N)nc3sc(C(=O)Nc4ccc(Br)cc4)c(N)c23)cc1	86.0	-16.1	63.7	51717
COc1ccc(-c2c3c(nc4sc(C(=O)Nc5cccc(OC)c5)c(N)c24)CC(C)(C)CC3=O)cc1	104.2	-26.1	nt	nt
CCc1c(C#N)c(N)nc2sc(C(=O)Nc3ccc(Br)cc3)c(N)c12	nt	-18.9	nt	nt
COc1ccc(NC(=O)c2sc3nc4c(c(-c5ccc(OC)cc5)c3c2N)C(=O)CC(C)(C)C4)cc1	70.2*	-39.7	80.9	32279
C=CC(=O)Nc1cccc(N2C(=O)N(c3c(Cl)c(OC)cc(OC)c3Cl)Cc3cnc(NCCCCN(CC)CC)nc32)c1	nt	-6.9	nt	nt
Cc1cc(C)c(C(=O)N2CCC(CC(=O)N3CCC4(CC3)OCCO4)CC2)[nH]1	104.6	-7.8	nt	nt
O=c1c2ccccc2nc(SCc2cccnc2)n1CCc1ccccc1	98.2	nt	nt	nt
CCN(c1ccccc1)S(=O)(=O)c1ccc(F)c(C(=O)Nc2cccc(Cl)c2)c1	103.8	nt	nt	nt
C=CCN1C(=O)/C(=C2/Sc3ccc(Cl)cc3N2CC)SC1=S	110.7	nt	nt	nt
C=CCN1C(=O)/C(=C2/Sc3ccccc3N2CC)SC1=S	77.1*	nt	71.6	3469*
O=C(O)C1(c2cccc(C(F)(F)F)c2)CCCC1	nt	13.9	nt	nt
O=C(O)C1C2C=CC(C2)C1C(=O)NCCO (stereo not drawn)	94.8	-34.4	nt	nt
